pKi: −log10 of the molar value.
The compounds below were run against truncated PI3Kα (p110α/iSH2 p85α), PI3KA_Act (Homo sapiens (Human), UniProt P42336) (assay: PI3Kα biochemical kinase assay, fluorescence polarization format (PI3KA_Act)). Conditions: 0.5 nM p110α/iSH2 p85, 1 mM ATP, 30 μM PIP2, 15-min preincubation; Morrison equation fit.
Protocol: Enzyme Production for Biochemical Assay: p110α-iSH2 p85α Complex (Full Length p110α and p85α iSH2)(“PI3KA Act”)
Gene encoding p110α subunit was subcloned into polyhedrine promoter while gene encoding p85α niSH2 domains was subcloned into p10 promoter. […] Recombinant baculovirus was generated using Bac-to-Bac protocol (Life Technologies, Carlsbad, Calif.). Large scale expression was conducted in Sf21 (Life Technologies, Carlsbad, Calif.) cells at a multiplicity of infection (“MOI”)=1 for 48 hours. Cells were lyzed in 50 mM Tris pH 8.0, 250 mM NaCl, 5% glycerol, 0.25 mM TCEP, and 20 mM imidazole. The p110α-niSH2 p85α complex was purified from clarified supernatant using Immobilized Metalo Affinity Chromatography (“IMAC”). The protein was eluted from the column using 50 mM Tris pH 8.0, 200 mM NaCl, 0.25 mM TCEP, and 200 mM imidazole. Following elution p110α-niSH2 p85α complex was dialyzed against 4 liters of 50 mM Tris pH 8.0, 200 mM NaCl, 0.25 mM TCEP, and 40 mM imidazole in the presence of PreScission Protease (1:70 molar ratio of Protease to Protein) and TEV protease (1:40 molar ratio protease to protein) for 16 hours at 4° C. The protein was further purified using reverse IMAC to remove cleaved histidine tag and contaminants captured during initial IMAC purification. The mixture of p110α-iSH2 p85α complex and cleaved nSH2 was recovered in reverse IMAC 40 mM imidazole flow through and 60 mM imidazole wash fractions. Those fractions were pulled together and loaded on Superdex 200 26/60 SEC column equilibrated in 25 mM Tris, pH 8.0, 100 mM NaCl, 2% glycerol, and 2 mM TCEP.
The enzymatic reactions were conducted in 50 μL volumes in 96-well plates. […] The reactions were incubated for 30 min at room temperature, stopped with EDTA pH 8 (10 mM final concentration). […] The plate was shaken for 30 minutes and fluorescence polarization values were measured on an LJL Analyst HT plate reader (Molecular Devices, Sunnyvale, Calif.).

Sequences of proteins named here, by UniProt entry; tags and fusion partners are left off.
UniProt P42336, whole entry: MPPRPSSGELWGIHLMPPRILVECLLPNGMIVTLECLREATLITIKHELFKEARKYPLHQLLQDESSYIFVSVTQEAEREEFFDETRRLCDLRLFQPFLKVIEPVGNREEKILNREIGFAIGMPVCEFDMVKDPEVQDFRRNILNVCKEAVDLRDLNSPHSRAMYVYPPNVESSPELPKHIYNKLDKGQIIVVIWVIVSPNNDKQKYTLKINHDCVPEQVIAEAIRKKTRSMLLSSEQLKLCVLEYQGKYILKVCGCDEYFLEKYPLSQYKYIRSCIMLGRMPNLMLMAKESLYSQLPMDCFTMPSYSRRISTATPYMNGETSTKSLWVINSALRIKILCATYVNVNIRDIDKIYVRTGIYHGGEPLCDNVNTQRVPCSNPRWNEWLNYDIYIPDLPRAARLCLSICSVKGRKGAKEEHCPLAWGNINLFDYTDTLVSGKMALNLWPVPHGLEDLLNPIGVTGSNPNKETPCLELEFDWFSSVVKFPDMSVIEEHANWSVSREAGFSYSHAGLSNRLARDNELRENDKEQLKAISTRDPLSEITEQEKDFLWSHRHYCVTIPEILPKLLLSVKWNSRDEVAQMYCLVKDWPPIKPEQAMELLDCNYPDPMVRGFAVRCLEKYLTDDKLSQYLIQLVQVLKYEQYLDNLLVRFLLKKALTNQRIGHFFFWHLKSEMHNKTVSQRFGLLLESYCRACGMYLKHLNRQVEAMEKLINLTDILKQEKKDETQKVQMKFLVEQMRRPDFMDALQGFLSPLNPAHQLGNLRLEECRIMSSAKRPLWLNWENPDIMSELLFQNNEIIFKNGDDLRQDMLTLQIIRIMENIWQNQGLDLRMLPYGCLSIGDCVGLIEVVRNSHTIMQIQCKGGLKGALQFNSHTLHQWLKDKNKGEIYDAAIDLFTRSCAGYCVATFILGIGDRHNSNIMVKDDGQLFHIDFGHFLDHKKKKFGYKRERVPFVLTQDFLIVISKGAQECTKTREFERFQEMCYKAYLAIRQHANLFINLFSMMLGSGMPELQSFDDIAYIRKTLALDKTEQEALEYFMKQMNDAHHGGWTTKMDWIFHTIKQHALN

Row | pKi | SMILES
1 | 10.70 | Nc1ncc(-c2nc(N3CCOCC3)nc(N[C@@]3(CO)CCN(C(=O)C4(F)CC4)C3)c2F)cn1 [Example 1, [(3S)-3-{[2′-amino-5-fluoro-2-(morpholin-4-yl)-4,5′-bipyrimidin-6-yl]amino}-3-(hydroxymethyl)pyrrolidin-1-yl](1-fluorocyclopropyl)methanone]
2 | 9.64 | CN(c1cc(-c2cnc(N)nc2)nc(N2CCOCC2)n1)[C@@]1(C)CCN(S(C)(=O)=O)C1 [Example 13, N~6~-methyl-N~6~-[(3S)-3-methyl-1-(methylsulfonyl)pyrrolidin-3-yl]-2-(morpholin-4-yl)-4,5′-bipyrimidine-2′,6-diamine]
3 | 8.97 | C[C@H]1COCCN1c1nc(-c2cnc(N)nc2)cc(N(C)[C@]2(C)CCN(C(=O)OC(C)(C)C)C2)n1 [Example 14, tert-butyl (3R)-3-[{2′-amino-2-[(3S)-3-methylmorpholin-4-yl]-4,5′-bipyrimidin-6-yl}(methyl)amino]-3-methylpyrrolidine-1-carboxylate]
4 | 9.07 | CC(=O)N1CC[C@@](C)(N(C)c2cc(-c3cnc(N)nc3)nc(N3CCOC[C@@H]3C)n2)C1 [Example 16, 1-{(3R)-3-[{2′-amino-2-[(3S)-3-methylmorpholin-4-yl]-4,5′-bipyrimidin-6-yl}(methyl)amino]-3-methylpyrrolidin-1-yl}ethanone]
5 | 8.65 | CC(=O)N1CC[C@@](C)(Nc2cc(-c3cnc(N)nc3)nc(N3CCOC[C@@H]3C)n2)C1 [Example 17, 1-[(3R)-3-({2′-amino-2-[(3S)-3-methylmorpholin-4-yl]-4,5′-bipyrimidin-6-yl}amino)-3-methylpyrrolidin-1-yl]ethanone]
6 | 9.89 | CC(=O)N1CC[C@](C)(N(C)c2cc(-c3cnc(N)nc3)nc(N3CCOC[C@@H]3C)n2)C1 [Example 20, 1-{(3S)-3-[{2′-amino-2-[(3S)-3-methylmorpholin-4-yl]-4,5′-bipyrimidin-6-yl}(methyl)amino]-3-methylpyrrolidin-1-yl}ethanone]
7 | > 10.74 | CC(C)(C)OC(=O)N1CC[C@](CO)(Nc2cc(-c3cnc(N)nc3)nc(N3CCOCC3)n2)C1 [Example 24, tert-butyl (3S)-3-{[2′-amino-2-(morpholin-4-yl)-4,5′-bipyrimidin-6-yl]amino}-3-(hydroxymethyl)pyrrolidine-1-carboxylate]
8 | 10.66 | CCOC(=O)N1CC[C@](CO)(Nc2cc(-c3cnc(N)nc3)nc(N3CCOCC3)n2)C1 [Example 45, ethyl (3S)-3-{[2′-amino-2-(morpholin-4-yl)-4,5′-bipyrimidin-6-yl]amino}-3-(hydroxymethyl)pyrrolidine-1-carboxylate]
9 | 9.27 | CC(=O)N1CC(CO)(Nc2cc(-c3cnc(N)nc3)nc(N3CCOC[C@@H]3C)n2)C1 [Example 53, 1-[3-({2′-amino-2-[(3S)-3-methylmorpholin-4-yl]-4,5′-bipyrimidin-6-yl}amino)-3-(hydroxymethyl)azetidin-1-yl]ethanone]
10 | 9.80 | CC(C)(C)OC(=O)N1CCC(Nc2cc(-c3cnc(N)nc3)nc(N3CCOCC3)n2)(C(F)(F)F)C1 (centres unmarked) [Example 62, tert-butyl 3-{[2′-amino-2-(morpholin-4-yl)-4,5′-bipyrimidin-6-yl]amino}-3-(trifluoromethyl)pyrrolidine-1-carboxylate]
11 | 10.59 | CC(C)OC(=O)N1CC[C@](CO)(Nc2cc(-c3cnc(N)nc3)nc(N3CCOC[C@@H]3C)n2)C1 [Example 66, propan-2-yl (3S)-3-({2′-amino-2-[(3S)-3-methylmorpholin-4-yl]-4,5′-bipyrimidin-6-yl}amino)-3-(hydroxymethyl)pyrrolidine-1-carboxylate]
12 | 10.24 | CC(C)(F)C(=O)N1CC[C@](CO)(Nc2cc(-c3cnc(N)nc3)nc(N3CCOCC3)n2)C1 [Example 68, 1-[(3S)-3-{[2′-amino-2-(morpholin-4-yl)-4,5′-bipyrimidin-6-yl]amino}-3-(hydroxymethyl)pyrrolidin-1-yl]-2-fluoro-2-methylpropan-1-one]
13 | 9.82 | Nc1ncc(-c2cc(N[C@@]3(CO)CCN(C(=O)[C@H]4C[C@@H]4F)C3)nc(N3CCOCC3)n2)cn1 [Example 74, [(3S)-3-{[2′-amino-2-(morpholin-4-yl)-4,5′-bipyrimidin-6-yl]amino}-3-(hydroxymethyl)pyrrolidin-1-yl][(1R,2S)-2-fluorocyclopropyl]methanone]
14 | 9.94 | Nc1ncc(-c2cc(N[C@@]3(CO)CCN(C(=O)[C@H]4C[C@H]4F)C3)nc(N3CCOCC3)n2)cn1 [Example 75, [(3S)-3-{[2′-amino-2-(morpholin-4-yl)-4,5′-bipyrimidin-6-yl]amino}-3-(hydroxymethyl)pyrrolidin-1-yl][(1R,2R)-2-fluorocyclopropyl]methanone]
15 | 10.32 | Nc1ncc(-c2nc(N[C@@]3(CO)CCN(C(=O)C4(F)CC4)C3)nc(N3CCOCC3)n2)cn1 [Example 91, [(3S)-3-{[4-(2-aminopyrimidin-5-yl)-6-(morpholin-4-yl)-1,3,5-triazin-2-yl]amino}-3-(hydroxymethyl)pyrrolidin-1-yl](1-fluorocyclopropyl)methanone]
16 | 10.47 | C[C@H]1COCCN1c1nc(N[C@@]2(CO)CCN(C(=O)C3CC3)C2)cc(-c2cnc(N)nc2)n1 [Example 96, [(3S)-3-({2′-amino-2-[(3S)-3-methylmorpholin-4-yl]-4,5′-bipyrimidin-6-yl}amino)-3-(hydroxymethyl)pyrrolidin-1-yl](cyclopropyl)methanone]
17 | 10.15 | Nc1ncc(-c2cc(N[C@@]3(CO)CCN(CC(=O)N4CCC4)C3)nc(N3CCOCC3)n2)cn1 [Example 98, 2-[(3S)-3-{[2′-amino-2-(morpholin-4-yl)-4,5′-bipyrimidin-6-yl]amino}-3-(hydroxymethyl)pyrrolidin-1-yl]-1-(azetidin-1-yl)ethanone]
18 | 10.03 | CC(C)(N)C(=O)N1CC[C@](C)(Nc2nc(N3CCOCC3)nc(-c3cnc(N)nc3)c2F)C1 [Example 109, 2-amino-1-[(3S)-3-{[2′-amino-5-fluoro-2-(morpholin-4-yl)-4,5′-bipyrimidin-6-yl]amino}-3-methylpyrrolidin-1-yl]-2-methylpropan-1-one]
19 | 9.33 | Nc1ncc(-c2nc(N3CCOCC3)nc(N[C@@]3(CO)CCN(C(=O)NCC(F)(F)F)C3)c2F)cn1 [Example 135, (3S)-3-{[2′-amino-5-fluoro-2-(morpholin-4-yl)-4,5′-bipyrimidin-6-yl]amino}-3-(hydroxymethyl)-N-(2,2,2-trifluoroethyl)pyrrolidine-1-carboxamide]
20 | 8.14 | CC(C)(C)OC(=O)N1CCC[C@@](CO)(Nc2nc(N3CCOCC3)nc(-c3cnc(N)nc3)c2F)C1 [Example 142, tert-butyl (3R)-3-{[2′-amino-5-fluoro-2-(morpholin-4-yl)-4,5′-bipyrimidin-6-yl]amino}-3-(hydroxymethyl)piperidine-1-carboxylate]

— patent US9758538B2, “Pyrimidine derivatives” (PFIZER INC., priority 2015, dated 2017)
